Laboratory results: paper PMC12154458, “High-Throughput Screens of Repurposing Hub and DOS Chemical Libraries Reveal Compounds with Novel and Potent Inhibitory Activity Against the Essential Non-Neuronal Acetylcholinesterase of Schistosoma mansoni (SmTAChE)” (International Journal of Molecular Sciences, 2025)

Sequences of proteins named here, by UniProt entry; tags and fusion partners are left off. Residues count along the entry.
UniProt P22303, 32-614 limits assumed: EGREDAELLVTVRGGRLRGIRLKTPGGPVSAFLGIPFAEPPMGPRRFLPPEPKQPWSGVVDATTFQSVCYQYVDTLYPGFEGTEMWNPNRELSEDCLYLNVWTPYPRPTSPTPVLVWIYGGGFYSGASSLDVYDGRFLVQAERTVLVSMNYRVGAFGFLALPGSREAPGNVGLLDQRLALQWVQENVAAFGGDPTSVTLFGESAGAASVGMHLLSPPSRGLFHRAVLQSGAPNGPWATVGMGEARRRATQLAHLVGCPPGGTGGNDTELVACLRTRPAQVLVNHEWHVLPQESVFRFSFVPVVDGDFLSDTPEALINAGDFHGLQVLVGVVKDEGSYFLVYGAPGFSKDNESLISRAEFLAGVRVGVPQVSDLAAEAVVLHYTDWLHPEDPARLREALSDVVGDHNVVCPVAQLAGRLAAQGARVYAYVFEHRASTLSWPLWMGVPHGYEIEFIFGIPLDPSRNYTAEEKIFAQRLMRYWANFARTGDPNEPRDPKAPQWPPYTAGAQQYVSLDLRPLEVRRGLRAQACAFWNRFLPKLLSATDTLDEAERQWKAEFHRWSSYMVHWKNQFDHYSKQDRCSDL

Target: recombinant human acetylcholinesterase, rHsAChE (Homo sapiens, UniProt P22303)
Conditions: dose response analysis of Drug Repurposing Hub hits against rHsAChE; call rule not given here

Structure (SMILES)	Data Mode (curve class), rHsAChE	IC50 (read-out: qAC50 (IC50), rHsAChE) [µM]
CCCn1c(=O)[nH]c2nc(-c3ccc(S(=O)(=O)N4CCN(c5ccc(Cl)cc5)CC4)cc3)[nH]c2c1=O	inactive	–
COc1cccc(-n2nc(C(=O)O)cc2-c2ccc(C3CCCCC3)c(Cl)c2)c1	decreasing	4.28
Cc1c(OCc2cccc(-c3ccc(C(=O)O)cc3)c2)cc2c(c1C)C(=O)C(C1CCCC1)C2 (stereo not shown)	decreasing	–
